Source: PubChem BioAssay AID602163 (The Scripps Research Institute Molecular Screening Center, 2012)
This is a selection; strong and weak results do not stand in their true shares. Calls of active or inactive are those of the source. Rule as the data show it: active = activation above about 7.5%; inactive = the rest.

The compounds below were run on Methionine sulfoxide reductase A (Bos taurus) (assay: activation of methionine sulfoxide reductase A – biochemical, absorbance, bovine, HTS, primary screen (AID 602163;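 also: 0% = vehicle and 100% = reference activator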)). Details: purified bovine MsrA, absorbance read-out; at 10.6 µM; hits give high values.

| SMILES | activation |
| --- | --- |
| O=c1[nH]c2ccccc2n1C1CCN(C(c2cccc3ccccc23)c2nnnn2C2CCCC2)CC1 (centres undefined) | inactive: -4.17% |
| CCOC(=O)N1CCC(Nc2cccc(C)c2)CC1 | inactive: -1.81% |
| COc1cc(C(=O)NCC2(N(C)C)CCCCC2)ccc1OC(F)F | inactive: -6.13% |
| O=c1[nH]c2ccccc2n1C1CCN(C(c2ccccc2)c2nnnn2C2CCCCC2)CC1 (centres undefined) | inactive: 0.28% |
| CCCCOc1ccc(C(=O)NCC2(N3CCOCC3)CCCCC2)cc1 | inactive: -4.83% |
| CCCCn1nnnc1C(c1cc2ccccc2o1)N1CCC(n2c(=O)[nH]c3ccccc32)CC1 (centres undefined) | inactive: -2.37% |
| O=P1(N(CCCl)CCCl)SCCCS1 | inactive: -2.59% |
| O=C(NCC1(N2CCCCC2)CCCCC1)c1ccc(F)cc1 | inactive: -2.55% |
| CCOC(=O)N1CCC(Nc2ccc(F)cc2)CC1 | inactive: -3.82% |
| COc1ccc(NC2CCN(CCc3ccccc3)CC2)c(OC)c1 | inactive: -4.02% |
| CCOc1ccc(C)cc1CN(CCCl)CCCl | inactive: -1.14% |
| CC(C)(C)n1nnnc1C(c1ccccc1)N1CCC(n2c(=O)[nH]c3ccccc32)CC1 (centres undefined) | inactive: -1.19% |
| O=C1CCN(Cc2ccccc2)CC1 | inactive: -0.78% |
| CCOC(=O)N1CCC(Nc2ccc(OC)cc2)CC1 | inactive: -3.97% |
| CCCCn1nnnc1C(c1ccc(OC)cc1)N1CCC(n2c(=O)[nH]c3ccccc32)CC1 (centres undefined) | inactive: -4.46% |
| O=C(NCC1(N2CCCCC2)CCCCC1)c1ccc(Cl)s1 | inactive: -0.59% |
| N#CC1(Nc2ccccc2)CCN(Cc2ccccc2)CC1 | inactive: -3.09% |
| O=c1[nH]c2ccccc2n1C1CCN(C(c2cc3ccccc3o2)c2nnnn2C2CCCCC2)CC1 (centres undefined) | inactive: 0.09% |
| O=C(OC1CN2CCC1CC2)C1c2ccccc2Oc2ccccc21 (centres undefined) | inactive: -2.84% |
| COc1ccc(Cl)cc1C(=O)NCC1(N2CCOCC2)CCCCC1 | inactive: -3.15% |
| O=C(NCC1(N2CCOCC2)CCCCC1)c1cc2ccccc2o1 | inactive: -0.55% |
| O=C(NCC1(N2CCCCC2)CCCCC1)c1ccc(Cl)nc1 | inactive: -0.32% |
| O=c1[nH]c2ccccc2n1C1CCN(C(c2ccccc2OC(F)(F)F)c2nnnn2C2CCCCC2)CC1 (centres undefined) | inactive: 1.23% |
| Cc1cc(C)cc(N(C(=O)c2ccccc2)C2CCN(C(=O)OC(C)(C)C)CC2)c1 | inactive: -3.42% |
| CSc1ccccc1C(=O)NCC1(N2CCCCC2)CCCCC1 | inactive: -4.31% |
| Cc1cccc(NC2(C#N)CCN(Cc3ccccc3)CC2)c1 | inactive: -1.75% |
| O=C(NCC1(N2CCCCC2)CCCCC1)c1ccc(=O)[nH]c1 | inactive: -0.36% |

| SMILES | activation |
| --- | --- |
| CCCCn1nnnc1C(CC)N1CCC(n2c(=O)[nH]c3ccccc32)CC1 (centres undefined) | inactive: -1.99% |
| O=C(NCC1(N2CCCCC2)CCCCC1)c1cccs1 | inactive: -10.4% |
| CCCCn1nnnc1C(c1cccs1)N1CCC(n2c(=O)[nH]c3ccccc32)CC1 (centres undefined) | inactive: -11.9% |
| COc1ccc(C(=O)NCC2(N3CCCCC3)CCCCC2)cc1 | inactive: -3.19% |
| COc1ccc(C(=O)NCC2(N3CCCCC3)CCCCC2)c(OC)c1OC | inactive: -8.64% |
| CC(C)(C)OC(=O)N1CCC(N(C(=O)c2ccccc2)c2ccc(F)cc2)CC1 | inactive: -2.12% |
| CCC(c1nnnn1C1CCCC1)N1CCC(n2c(=O)[nH]c3ccccc32)CC1 (centres undefined) | inactive: 0.38% |
| Cc1ccc(C(=O)NCC2(N(C)C)CCCCC2)o1 | inactive: 0.61% |
| CCCOc1ccc(C(=O)NCC2(N(C)C)CCCCC2)cc1OC | inactive: -2.64% |
| COc1ccc(C(c2nnnn2C2CCCC2)N2CCC(n3c(=O)[nH]c4ccccc43)CC2)cc1 (centres undefined) | inactive: -2.53% |
| CN1CCC(Nc2cccc(F)c2)CC1 | inactive: 1.87% |
| O=C(NCC1(N2CCCCC2)CCCCC1)c1cncc(Br)c1 | inactive: -0.73% |
| CCCCn1nnnc1C(c1ccnc2ccccc12)N1CCC(n2c(=O)[nH]c3ccccc32)CC1 (centres undefined) | inactive: -1.1% |
| COc1cc(OC)c(C(=O)NCC2(N(C)C)CCCCC2)cc1OC | inactive: -4.31% |
| CCC(c1nnnn1C(C)(C)C)N1CCC(n2c(=O)[nH]c3ccccc32)CC1 (centres undefined) | inactive: -2.18% |
| O=C(NCC1(N2CCOCC2)CCCCC1)c1cc(F)c(F)cc1Cl | inactive: -3.03% |
| COc1ccc(CN(CCCl)CCCl)cc1Cl | inactive: 5.09% |
| CN(C)c1cccc(C(=O)NCC2(N3CCCCC3)CCCCC2)c1 | inactive: 0.7% |
| CCCCn1nnnc1C(c1ccccc1OC(F)(F)F)N1CCC(n2c(=O)[nH]c3ccccc32)CC1 (centres undefined) | inactive: 1.42% |
| CC(C)c1ccc(NC2CCN(C(=O)OC(C)(C)C)CC2)cc1 | inactive: -0.91% |
| COc1ccc(NC2CCN(C(=O)OC(C)(C)C)CC2)cc1 | inactive: -3.16% |
| CC(C)c1ccc(C(=O)NCC2(N3CCOCC3)CCCCC2)cc1 | inactive: -0.18% |
| CN1CCN(CCOC(=O)C(O)(c2ccccc2)c2ccccc2)CC1 | inactive: -3.93% |
| CCCCn1nnnc1C(c1cccc2ccccc12)N1CCC(n2c(=O)[nH]c3ccccc32)CC1 (centres undefined) | inactive: -0.66% |
| O=C(NCC1(N2CCOCC2)CCCCC1)c1cc(=O)[nH]c2ccccc12 | inactive: -2.52% |
| COc1cc(C(=O)NCC2(N3CCCCC3)CCCCC2)ccc1OC(F)F | inactive: -1.9% |
| O=C(NCC1(N2CCCCC2)CCCCC1)c1cccc(C(F)(F)F)c1 | inactive: -1.1% |
